Results reported in US20150272863A1, “H3 ANTAGONIST BY-PRODUCT, ITS MANUFACTURE, AND METHOD OF USING BY-PRODUCT TO REDUCE PIGMENTATION IN SKIN” (Active Concepts, LLC, priority 2014, published 2015).

Test system: mouse melanoma cells (B16F10 cell line)
Experiment: Melanin inhibition assay
Assay type: cell-based
Settings: found through experimentation; H3 antagonists
Experimental: The assays utilized mouse melanoma cells (B16F10 cell line) which are very efficient at producing melanin. Various inhibitors and enhancers of melanin synthesis were added to the cultured cells along with experimental samples.
The B16F10 murine melanocytes were seeded into 24-well tissue culture plates and allowed to grow to confluency in complete DMEM. Solutions of H3 antagonists, Arbutin, alpha-Melanocyte Stimulating Hormone (a-MSH), and AA2G were prepared in Complete DMEM. Complete Dulbeco's Modified Eagle Media (DMEM) was used as the untreated control. Additionally, the individual components of the H3 antagonists, Yeast Peptide and Plant Extract, were also analyzed for melanogenic effects. Cells were treated for 72 hours.
For the inhibition assay, the media was removed from the wells and the monolayers were washed with phosphate buffered saline (PBS). NaOH was added to each well and 100 μL of each solution were added to a 96-well plate in duplicate. The plate was measured by optical density readings at 400 nm.
As discussed above, skin pigmentation is determined by the amount of melanin in the skin which is produced by dermal melanocytes. […]

## N/C(=N/CCc1ccc(I)cc1)SCCCc1cnc[nH]1 [lodophenpropit]
  suitability to reduce or eliminate pigmentation in a users skin: suitable for use as a by-product in cosmetics to reduce or eliminate pigmentation
